Experimental data from patent publication US8901315B2, “Thienopyrazole derivative having PDE7 inhibitory activity” (Daiichi Sankyo Company, Limited, priority 2004, dated 2014).
Like-named read-outs stand apart in the source and are kept apart here.

Protein sequences, listed by entry. Tags and fused reporters are not part of them. Lines headed by an entry give the natural chain unless they say otherwise; changes in a name come on top.
UniProt Q13946: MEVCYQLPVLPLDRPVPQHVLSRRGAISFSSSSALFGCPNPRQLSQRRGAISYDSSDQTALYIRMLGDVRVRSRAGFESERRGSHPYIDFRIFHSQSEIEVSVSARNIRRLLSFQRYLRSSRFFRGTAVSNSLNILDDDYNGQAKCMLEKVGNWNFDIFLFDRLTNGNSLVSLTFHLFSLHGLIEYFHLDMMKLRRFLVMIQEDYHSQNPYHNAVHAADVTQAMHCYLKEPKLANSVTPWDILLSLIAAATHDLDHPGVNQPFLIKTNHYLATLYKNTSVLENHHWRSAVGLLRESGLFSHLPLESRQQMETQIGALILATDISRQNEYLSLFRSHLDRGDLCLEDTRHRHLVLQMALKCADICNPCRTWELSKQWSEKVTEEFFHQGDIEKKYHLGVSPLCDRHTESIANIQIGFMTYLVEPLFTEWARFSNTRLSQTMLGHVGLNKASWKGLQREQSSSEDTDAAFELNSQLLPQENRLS

Experiments:
[1] = biological target: PDE 4 (phosphodiesterase IV); assay: PDE 4 inhibiting effect (3H-cAMP hydrolysis, PDE 4 active fraction from Balb/c mouse liver); assay type: biochemical; details: PDE 4 fraction from Balb/c mice liver, 0.064 μM cAMP, 2 hours at 25° C., read-out: PDE4 IC50
Procedure: Methods for Evaluating the PDE 4 Inhibiting Effect
The PDE 4 (phosphodiesterase IV) inhibiting effect of the compounds of the present invention was performed by the following method, which was modified assay method described in Biochemical. […] That is, the livers obtained from three Balb/c mice (male, 12 weeks: obtainable from CLEA Japan, Inc.) were suspended with 30 mL of buffer solution B [20 mM of bis-tris, 5 mM of 2-mercaptoethanol, 2 mM of benzamidine, 2 mM of EDTA, 0.1 mM of 4-(2-aminoethyl)benzenesulfonyl hydrochloride, 50 mM of sodium acetate; pH 6.5], then homogenized by Polytron® homogenizer. The homogenate were centrifuged under 25,000×G for 10 minutes at 4° C. The supernatant was separated and thus obtained supernatant was further centrifuged under 100,000×G for 60 minutes at 4° C., and then filtrated with 0.2 μm filter to obtain the soluble fraction. • (2) The obtained soluble fraction was filled in equilibrium DEAE sepharose column (1×10 cm) with buffer solution B, and phosphodiesterase fractions were eluted by 120 mL of buffer solution B with linear gradient from 0.05 to 1M sodium acetate concentration. 5 mL each of 24 eluents were collected, and each eluents were examined for cyclic AMP metabolic activities of phosphodiesterase. […] After the reaction, suspension of Sephadex®-QAE in 10 mM of HEPES-Na (pH 7.0) was added to the reaction mixture, and the mixture was left at rest for 5 minutes.

[2] = biological target: PDE 7 (phosphodiesterase VII) (Homo sapiens (Human), UniProt Q13946); assay: PDE 7 inhibiting effect (3H-cAMP hydrolysis, PDE 7 active fraction from MOLT-4 cells); assay type: biochemical; details: read-out: PDE7 IC50
Procedure: Methods for Evaluating the PDE 7 Inhibiting Effect
The PDE 7 (phosphodiesterase VII) inhibiting effect of the compounds of the present invention was performed by the following method, which was modified assay method described in Biochemical. Pharmacol. 48(6), 1219-1223 (1994). • (1) The active fraction of PDE 7 (phosphodiesterase VII) was obtained. That is, MOLT-4 (obtainable from ATCC as ATCC No. CRL-1582), which was cell line of human acute lymphoblastic lymphoma T cells, was incubated in RPMI1640 culture medium containing 10% fetal bovine serum to obtain 5×10^8 MOLT-4 cells. The cells were collected by centrifugation and suspended with 10 mL of buffer solution A [25 mM of tris-HCl, 5 mM of 2-mercaptoethanol, 2 mM of benzamidine, 2 mM of EDTA, 0.1 mM of 4-(2-aminoethyl)benzenesulfonyl hydrochloride; pH 7.5], then homogenized by Polytron® homogenizer. The homogenate were centrifuged under 25,000×G for 10 minutes at 4° C. The supernatant was separated and thus obtained supernatant was further centrifuged under 100,000×G for 60 minutes at 4° C., and then filtrated with 0.2 μm filter to obtain the soluble fraction. • (2) The obtained soluble fraction was filled in equilibrium HiTrap Q column (5 mL×2) with buffer solution A, and phosphodiesterase fractions were eluted by 300 mL of buffer solution A with linear gradient from 0 to 0.8 M NaCl concentration. […]

IC50 [1]	SMILES	other results
–	Cc1nn(C2CCCCC2)c2sc(C(=O)Nc3ccc(N4CCC(O)CC4)cc3)cc12 [Example 367, 1-Cyclohexyl-N-[4-(4-hydroxy-1-piperidinyl)phenyl]-3-methyl-1H-thieno[2,3-c]pyrazole-5-carboxamide methanesulfonate]	IC50 ([1]; methanesulfonate): 2.3 µM
1.5 µM	Cc1nn(C2CCCCC2)c2sc(C(=O)Nc3ccc(N4CCC(O)CC4)cc3)cc12 [Example 114]	–
1.6 µM	Cc1nn(C2CCCCC2)c2sc(C(=O)Nc3ccc(N4CCC(O)CC4)c(F)c3)cc12 [Example 159, 1-Cyclohexyl-N-[3-fluoro-4-(4-hydroxy-1-piperidinyl)phenyl]-3-methyl-1H-thieno[2,3-c]pyrazole-5-carboxamide]	–
–	Cc1nn(C2CCCCC2)c2sc(C(=O)NCCN3CC(=O)NC3=O)cc12 [Example 313, 1-Cyclohexyl-N-[2-(2,4-dioxo-1-imidazolidinyl)ethyl]-3-methyl-1H-thieno[2,3-c]pyrazole-5-carboxamide]	IC50 [2]: 0.09 µM
